Measured values published in US10696677B2 (Research Triangle Institute, priority 2016, dated 2020).

By UniProt entry, the sequences of proteins in these tests, tags left out.
UniProt P21554, whole entry: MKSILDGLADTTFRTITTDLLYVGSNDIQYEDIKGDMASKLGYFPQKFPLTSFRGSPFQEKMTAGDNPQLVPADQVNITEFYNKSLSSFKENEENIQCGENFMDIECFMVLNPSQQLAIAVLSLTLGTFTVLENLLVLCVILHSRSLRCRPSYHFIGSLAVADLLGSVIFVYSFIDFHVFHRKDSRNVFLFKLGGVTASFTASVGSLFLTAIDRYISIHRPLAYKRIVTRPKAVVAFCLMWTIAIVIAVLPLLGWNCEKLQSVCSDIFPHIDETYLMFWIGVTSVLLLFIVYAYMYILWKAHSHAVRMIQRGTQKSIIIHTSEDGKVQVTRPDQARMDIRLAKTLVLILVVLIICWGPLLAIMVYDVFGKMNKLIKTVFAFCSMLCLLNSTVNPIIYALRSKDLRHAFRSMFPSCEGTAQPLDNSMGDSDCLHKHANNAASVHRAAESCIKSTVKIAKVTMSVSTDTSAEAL

Tests used:
MDCK = MDCK BBB Assay; format: in vitro ADME; settings: MDCK cells
hCB1 = hCB1 (Homo sapiens, UniProt P21554); assay: radioligand displacement binding at CB1 (membranes of CHO-K1 cells over-expressing receptor); settings: CB1 versus CB2

SMILES | MDCK BBB Assay (Basolateral/Apical Peak Area Ratio) Mean (MDCK) | CB2 Ki/CB1 Ki selectivity ratio (hCB1)
CS(=O)(=O)N1CCN(c2ncnc3c2nc(-c2ccccc2Cl)n3-c2ccc(Cl)cc2)CC1 [Compound 86, 8-(2-Chlorophenyl)-9-(4-chlorophenyl)-6-[4-(methylsulfonyl)piperazin-1-yl]-9H-purine] | 0.143 | 68
O=C(NC1CCCCC1)N1CCN(c2ncnc3c2nc(-c2ccccc2Cl)n3-c2ccc(Cl)cc2)CC1 [Compound 119, 4-[8-(2-chlorophenyl)-9-(4-chlorophenyl)-9H-purin-6-yl]-N-cyclohexylpiperazine-1-carboxamide] |  | 440
O=C(Nc1ccccc1F)N1CCN(c2ncnc3c2nc(-c2ccccc2Cl)n3-c2ccc(Cl)cc2)CC1 [Compound 56, 4-[8-(2-Chlorophenyl)-9-(4-chlorophenyl)-9H-purin-6-yl]-N-(2-fluorophenyl)piperazine-1-carboxamide] |  | 220
O=C(Nc1ccc(F)cc1)N1CCN(c2ncnc3c2nc(-c2ccccc2Cl)n3-c2ccc(Cl)cc2)CC1 [Compound 43, 4-[8-(2-Chlorophenyl)-9-(4-chlorophenyl)-9H-purin-6-yl]-N-(4-fluorophenyl)piperazine-1-carboxamide] |  | 110
O=C(Nc1ccccn1)N1CCN(c2ncnc3c2nc(-c2ccccc2Cl)n3-c2ccc(Cl)cc2)CC1 [Compound 122, 4-[8-(2-Chlorophenyl)-9-(4-chlorophenyl)-9H-purin-6-yl]-N-(pyridin-2-yl)piperazine-1-carboxamide] | 0.012 | 1200
O=C(Nc1ccc(F)c(F)c1)N1CCN(c2ncnc3c2nc(-c2ccccc2Cl)n3-c2ccc(Cl)cc2)CC1 [Compound 42, 4-[8-(2-Chlorophenyl)-9-(4-chlorophenyl)-9H-purin-6-yl]-N-(3,4-difluorophenyl)piperazine-1-carboxamide] | 0.0001 | 840
CC(C)CS(=O)(=O)N1CCN(c2ncnc3c2nc(-c2ccccc2Cl)n3-c2ccc(Cl)cc2)CC1 [Compound 82, 8-(2-Chlorophenyl)-9-(4-chlorophenyl)-6-{4-[(2-methylpropyl)sulfonyl]piperazin-1-yl}-9H-purine] | 0.000 | 1407
O=C(Nc1ccccc1)N1CCN(c2ncnc3c2nc(-c2ccccc2Cl)n3-c2ccc(Cl)cc2)CC1 [Compound 121, 4-[8-(2-chlorophenyl)-9-(4-chlorophenyl)-9H-purin-6-yl]-N-phenylpiperazine-1-carboxamide] |  | 400
CC(C)S(=O)(=O)N1CCN(c2ncnc3c2nc(-c2ccccc2Cl)n3-c2ccc(Cl)cc2)CC1 [Compound 80, 8-(2-Chlorophenyl)-9-(4-chlorophenyl)-6-{4-[(1-methylethyl)sulfonyl]piperazin-1-yl}-9H-purine] |  | 699
O=C(NC1(C(F)(F)F)CCCC1)N1CCN(c2ncnc3c2nc(-c2ccccc2Cl)n3-c2ccc(Cl)cc2)CC1 [Compound 118, 4-[8-(2-Chlorophenyl)-9-(4-chlorophenyl)-9H-purin-6-yl]-N-[1-(trifluoromethyl)cyclopentyl]piperazine-1-carboxamide] |  | 54
O=C(NC1CCCC1)N1CCN(c2ncnc3c2nc(-c2ccccc2Cl)n3-c2ccc(Cl)cc2)CC1 [Compound 117, 4-[8-(2-Chlorophenyl)-9-(4-chlorophenyl)-9H-purin-6-yl]-N-cyclopentylpiperazine-1-carboxamide] | 0.03 | 150
O=C(NCC1CCCCC1)N1CCN(c2ncnc3c2nc(-c2ccccc2Cl)n3-c2ccc(Cl)cc2)CC1 [Compound 120, 4-[8-(2-chlorophenyl)-9-(4-chlorophenyl)-9H-purin-6-yl]-N-(cyclohexylmethyl)piperazine-1-carboxamide] |  | 17
